The record followed here is patent publication US7652067B2, “Aqueous compositions containing monoester salts” (Millenium Specialty Chemicals, Inc., priority 2006, dated 2010).

This data set is described as follows: Solubilization of hydrophobic organic compound in aqueous sodium monomenthyl glutarate (Na-MMG). Conditions: MMG neutralised with 8.8% aqueous sodium bicarbonate.

Regarding `Cc1c(C)c2c(c(C)c1O)CCC(C)(CCCC(C)CCCC(C)CCCC(C)C)O2` (stereo not drawn) [α-tocopherol], the “concentration of hydrophobic compound in clear, homogeneous solution in aqueous Na-MMG” value is recorded as about 1.25%.
